An excerpt weighted towards active compounds, which were near 2.8% of everything screened.
Wnt bcat act = activators of Wnt/beta-catenin signaling | Wnt/beta-catenin reporter cell assay, activator, plate reader | activation, % at 9.35 µM | 300,000 tested, 1.2% active; in the data active means activation above about 30%, passing the limit was not always enough; inconclusive means no clear call, values can overlap the other calls;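 further: 0% = neutral control wells and 100% = positive control wells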
MITF TRPM1 HTS = MITF TRPM1 promoter activation in melanoma cells; SK-MEL-5 TRPM1-promoter luciferase, 24 h; % of positive control, neutral wells = 0; activation, % at 12.5 µM; 300,000 tested, 0.75% active; AID 588334;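 active means mean activation of at least 80% with every replicate also reaching 80%; inconclusive means mean reaches 80% but some replicate falls short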;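 further: 0% = neutral control wells and 100% = parthenolide positive control wells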
esBAF inh = blocks esBAF chromatin remodeling in mouse ES cells. Bmi1-luciferase knock-in reporter, 24 h; 100% = twice the neutral-well signal. reporter increase, % at 12.5 µM. 350,000 tested, 2% active; in the data active means activation above about 40%; inconclusive means no clear call, values can overlap the other calls;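 further: 0% = median of the plate's neutral control wells and 100% = double that signal; a rise in the Bmi1 reporter signal indicates esBAF inhibition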
PglD DTNB = PglD (C. jejuni) enzyme inhibition; 360,000 tested, 0.098% active; inhibition, % at 12.5 µM; purified PglD enzyme, DTNB colorimetric CoA detection; AID 602405; in the data active means inhibition above about 16%, passing the limit was not always enough; inconclusive means no clear call, values can overlap the other calls
miR-122 sensor = miR-122 inhibition in Huh7 cells; Huh7 miR-122 Renilla luciferase sensor, 48 h; neutral wells = 0, positive control = 100; activation (reporter increase), % at 12.5 µM; 340,000 tested, 0.3% active;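 active means mean replicate activation score at least 90 and every replicate individually at or above 90; inconclusive means only one of the two criteria met; inactive means neither criterion met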;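 further: higher luciferase means less miR-122 activity so hits act as miR-122 inhibitors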
Yeast UUG start = yeast start codon fidelity modulation; AID 602363; activity score, % at 18.7 µM; S. cerevisiae UUG-firefly luciferase reporter, luminescence/redox ratio; 0.13% of 350,000 active;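 active means replicate mean at a twofold rise or more, about +100% in these data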;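 further: firefly luciferase made from a UUG start codon reports start codon fidelity; reporter light over untreated wells divided by growth signal over untreated wells; some hits fall short of that in this replicate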
Active calls of the source: *; ? = inconclusive; . = no result; [ ] = dose if it differs, or a comment.

No. | structure | esBAF inh | MITF TRPM1 HTS | miR-122 sensor | Yeast UUG start | PglD DTNB | Wnt bcat act
1 | COc1ccc(NC(=O)Nc2ccc3c(c2)C(=O)N([C@H](C)CO)C[C@@H](C)[C@@H](CN(C)S(=O)(=O)c2ccc(OC)cc2)O3)cc1 | 2 | . | 101*[16.7 µM] | -4 | 1 | .
2 | COc1ccc(S(=O)(=O)N(C)C[C@H]2Oc3ccc(NC(=O)Nc4ccc(F)cc4)cc3C(=O)N([C@H](C)CO)C[C@H]2C)cc1 | 2 | . | 101*[16.7 µM] | -2 | 3 | .
3 | COc1ccc(S(=O)(=O)N(C)C[C@@H]2Oc3ccc(NC(=O)Nc4ccc(F)cc4)cc3C(=O)N([C@@H](C)CO)C[C@H]2C)cc1 | -5 | . | 2[16.7 µM] | -5 | -6 | .
4 | COc1ccccc1-c1cc2ccccc2[nH]1 | 74* | 73 | 17 | -14 | -4 | .
5 | O=C(O)c1ccccc1-c1cc2ccccc2[nH]1 | . | . | . | . | . | 5
6 | COc1cccc(-c2nnn(CC(C)=O)n2)c1 | . | 82* | 5 | -17 | -6 | .
7 | CCOc1ccc(-c2nnn(CC(=O)NCc3ccc(F)cc3)n2)cc1OCC | 1 | -11 | . | -3 | -4 | 1
8 | CCOc1ccc(-c2nnn(CC(=O)Nc3cccc(OC)c3)n2)cc1OCC | 0 | -9 | 0 | -15 | -4 | 33*
9 | CCCCCCC(=O)N(O)C1CC(=O)N(c2ccc(Cl)cc2)C1=O (stereo unspecified) | . | . | -11 | -7 | 0 | 52*
10 | CCCCCCC(=O)N(O)C1CC(=O)N(c2ccc(C)cc2)C1=O (stereo unspecified) | -10 | -13 | -1 | 1 | 4 | 7
11 | CO[C@H]1CN(C)C(=O)c2cc(NS(C)(=O)=O)ccc2OC[C@H](C)N(C(=O)CC2CC2)C[C@H]1C | -2 | . | . | 51 | 7 | .
12 | COC(=O)c1ccc(COc2ccc3c(C)c(C)c(=O)oc3c2C)o1 | 23* | . | . | 1 | 4 | .

Just MITF TRPM1 HTS, PglD DTNB and Wnt bcat act, for some of the entries so far:
no.	molecule	MITF TRPM1 HTS	PglD DTNB	Wnt bcat act
4	COc1ccccc1-c1cc2ccccc2[nH]1	73	-4	.
8	CCOc1ccc(-c2nnn(CC(=O)Nc3cccc(OC)c3)n2)cc1OCC	-9	-4	33*

(cont.)
No. | structure | esBAF inh | MITF TRPM1 HTS | miR-122 sensor | Yeast UUG start | PglD DTNB | Wnt bcat act
13 | O=C(c1ccc(COc2ccccc2[N+](=O)[O-])o1)N1CCCCC1 | . | 21 | . | . | . | .
14 | COC(=O)c1ccc(COc2ccc(C)cc2[N+](=O)[O-])o1 | . | . | 1 | -8 | -2 | 36*
15 | Cc1c(OCc2ccc(C(=O)O)o2)ccc2c3c(c(=O)oc12)CCC3 | -2 | 2 | -1 | -14 | -6 | .
16 | O=C(c1ccc(COc2ccccc2[N+](=O)[O-])o1)N1CCCCCC1 | 55* | 43 | -2 | -12 | . | 0
17 | CC=Cc1ccc2n(c1=O)C[C@H]1[C@H](CO)[C@@H](C(=O)N[C@H](C)c3ccccc3)[C@@H]2N1CC1CC1 (mixture of isomers) | 4 | . | -2[16.7 µM] | . | 2 | .
18 | C[C@H]1CN([C@@H](C)CO)C(=O)Cc2cc(NS(=O)(=O)c3cn(C)cn3)ccc2O[C@H]1CN(C)C(=O)Nc1ccc2c(c1)OCO2 | 1 | . | 4[16.7 µM] | 1 | 3 | .
19 | COc1ccc(CN(C)C[C@H]2OCCCC[C@H](C)Oc3ccc(NS(=O)(=O)c4ccc(OC)cc4)cc3C(=O)N([C@@H](C)CO)C[C@@H]2C)cc1 | -5 | . | 11[16.7 µM] | 17 | -1 | .
20 | O=C(OCc1ccccn1)c1ccc(COc2ccc3ccccc3c2)o1 | 53* | 49 | -1 | -19 | 5 | -2
21 | CS/C(Nc1cc(Cl)ccc1Cl)=C(/C#N)C(=O)c1ccco1 | 0 | . | 7 | -21 | 7 | 37*
22 | O=C(Nc1cc(Cl)ccc1Cl)c1ccco1 | -4 | -10 | -5 | -5 | 1 | 1
23 | Cc1ccc(NC(=O)c2ccc(OC(=O)CCN3C(=O)c4ccccc4C3=O)cc2)cc1 | ? | 49 | -1 | -17 | -4 | 46*
24 | Cc1cc(C)cc(OC(=O)CCN2C(=O)c3ccccc3C2=O)c1 | -1 | 0 | -7 | -16 | -3 | .
25 | CCCN(C)C[C@@H]1OCCCC[C@@H](C)Oc2ccc(NC(=O)NC(C)C)cc2C(=O)N([C@@H](C)CO)C[C@@H]1C | . | . | -3[16.7 µM] | . | 3 | .
26 | COc1cc2c(cc1[N+](=O)[O-])-c1ccccc1C2 | 42* | 26 | -6 | -12 | -5 | -12
27 | C[C@@H]1CN([C@@H](C)CO)C(=O)Cc2cc(NC(=O)Nc3ccccc3)ccc2O[C@H]1CN(C)S(C)(=O)=O | -4 | . | 2[16.7 µM] | 22 | 6 | .
28 | COc1cc(NS(=O)(=O)c2ccc(NC(=S)NC(=O)/C=C/c3ccc(F)cc3)cc2)ncn1 | -1 | -4 | -3 | . | . | 41*
29 | COc1nccnc1NS(=O)(=O)c1ccc(NC(=S)NC(=O)/C=C/c2ccc(F)cc2)cc1 | . | 0 | . | . | . | -2
30 | COc1ccc(C(=O)Cc2nnc(C)s2)c(OC)c1 | . | 39 | . | . | . | 5
31 | COc1ccc(C(=O)Cc2ccc(F)cc2)c(OC)c1 | 76* | 74 | -17 | -5 | -1 | 23
32 | COc1ccc(C(=O)Cc2cc(OC)c(OC)cc2[N+](=O)[O-])c(OC)c1 | 52* | 30 | . | -18 | -4 | 11
33 | CCOc1cc(C2C(C(=O)N3CCCCC3)=C(C)NC3=C2C(=O)CC(C)(C)C3)ccc1O (stereo unspecified) | 0 | -5 | 0 | -14 | 1 | 54*
34 | CC1=C(C(=O)OC(C)C)C(c2ccc(N(C)C)cc2)C2=C(CC(C)(C)CC2=O)N1 (stereo unspecified) | 2 | -1 | 150* | -1 | -1 | -4
35 | COc1ccc(NC(=O)C[C@H]2CC[C@H]3[C@@H](COc4ccc(NC(C)=O)cc4C(=O)N3C)O2)cc1 | -4 | . | 0[16.7 µM] | -1 | 9 | .
36 | COc1ccc(N2C(=O)c3cccc4c(N(C)CCO)ccc(c34)C2=O)cc1 | 43* | . | ? | -8 | -3 | 3

The final three records of the section above lead into the next.
No. | structure | esBAF inh | MITF TRPM1 HTS | miR-122 sensor | Yeast UUG start | PglD DTNB | Wnt bcat act
34 | CC1=C(C(=O)OC(C)C)C(c2ccc(N(C)C)cc2)C2=C(CC(C)(C)CC2=O)N1 (stereo unspecified) | 2 | -1 | 150* | -1 | -1 | -4
35 | COc1ccc(NC(=O)C[C@H]2CC[C@H]3[C@@H](COc4ccc(NC(C)=O)cc4C(=O)N3C)O2)cc1 | -4 | . | 0[16.7 µM] | -1 | 9 | .
36 | COc1ccc(N2C(=O)c3cccc4c(N(C)CCO)ccc(c34)C2=O)cc1 | 43* | . | ? | -8 | -3 | 3
37 | O=C(O)COc1ccc(/C=C/c2nc(-c3ccccc3O)n[nH]2)cc1 | 0 | . | . | -12 | -2 | -2
38 | COc1ccc(/C=C/c2nc(-c3ccccc3O)n[nH]2)cc1OC | 62* | 143* | 2 | 0 | 4 | 24
39 | CC(C)OC(=O)c1ccc2ccc(-c3ccccc3)nc2c1 | 55* | . | -6 | -23 | 7 | 24
40 | CC(C)OC(=O)c1ccc2nc3ccccc3nc2c1 | -4 | 6 | . | -48 | 0 | 43*
41 | CC(C)OC(=O)c1cccc(C(=O)O)n1 | . | 17 | 5 | -6 | 0 | -1
42 | CC(C)OC(=O)c1ccc(NC(=O)c2ccccc2)cc1 | . | 60 | . | . | . | .
43 | COc1ccccc1NC(=O)N(C)C[C@H]1OCc2ccccc2-c2ccccc2C(=O)N([C@@H](C)CO)C[C@H]1C | -8 | . | . | . | -6 | .
44 | C[C@H](CO)N1C[C@H](C)[C@H](CN(C)CC2CCOCC2)Oc2ncc(C#Cc3ccccc3)cc2C1=O | -8 | . | -3[16.7 µM] | 3 | 1 | .
45 | CCC(=O)N(C)C[C@@H]1Oc2ncc(C#CCC(C)C)cc2C(=O)N([C@H](C)CO)C[C@@H]1C | 5 | . | 15[16.7 µM] | 3 | -1 | .
46 | COc1ccc2nc(SCc3cccc(C)c3)nc(C)c2c1 | . | 71 | . | . | . | 48*
47 | COc1ccc2nc(SCc3ccccc3C)nc(C)c2c1 | . | 69 | . | . | . | ?
48 | C[C@@H]1CCCCO[C@@H](CN(C)Cc2ccc(Cl)c(Cl)c2)[C@H](C)CN([C@H](C)CO)C(=O)c2cc(NC(=O)NC3CCCCC3)ccc2O1 | -6 | . | -5[16.7 µM] | 2 | -2 | .
